Assays:
LN229 cells = test: Neutral comet assay after IR, LN229 cells; format: cell-based, human; conditions: 20 nM overnight, 6 Gy, low EGFR binding LN229
Method: (§1) Cells were treated with indicated times doses of MMAE, mertansine, cetuximab, cetuximab-MMAE, trastuzumab, trastuzumab-MMAE or T-DM1 overnight, and then irradiated with 6 Gy. Cells were collected 15 min post IR, suspended in agarose gel and lysed per assay directions (Trevigen). Samples underwent electrophoresis under neutral conditions and were then stained with Sybr Green. Comet tails were counted in multiple fields (>60 cells per sample) and analysed using CometScore (TriTek Corp). Comet tail length was normalized to vehicle-treated, non-irradiated cells.

CAL-27 cells [1] = test: Neutral comet assay after IR, CAL-27 cells; format: cell-based, human; conditions: 5 nM overnight, 6 Gy, compared with irradiated vehicle
Method: as §1

CAL-27 tumour xenografts = test: CAL-27 tumour xenograft growth with or without IR; format: in vivo, mice; conditions: Fig 4f, 0.5 nmol cetuximab or C-MMAE, 2 nmol free MMAE on day 0
Method: (§2) CAL-27, OE19, NCI N87 and HCT116 tumour xenografts were established and tumour growth was measured with digital calipers. Tumour volume was measured blindly to treatment group and calculated using the formula as ½ × length × width^2. Mice were randomized into groups once the average tumour volume reached >100 mm^3. Mice were assigned to indicated groups in ‘Results'. […] For irradiated mice, the tumour-bearing hindlimbs were focally irradiated while the remainder of the mouse was shielded from IR with custom designed lead blocking >95% of the dose as verified by dosimeters placed on the mouse. Free MMAE was injected on an equimolar basis to C-MMAE in final volume of 3% DMSO. Drug doses and IR fractionation are as indicated in ‘Results'. To prevent unnecessary morbidity, mice were killed if tumour length exceeded 15 mm per protocol. Nonlinear regression least squares fit was used to calculate tumour volume doubling times. Tumour doubling times were extrapolated for T-DM1+IR groups where tumour doubling was been achieved. To minimize the number of mice used, tumours were grown in the bilateral flanks. For CAL-27 tumour xenografts in experiment Fig. 4f, the number of mice and tumours per group were: control (5 mice, 10 tumours), IR (5 mice, 10 tumours), MMAE (4 mice, 8 tumours) MMAE+IR (5 mice, 10 tumours), cetuximab (5 mice, 10 tumours), cetuximab+IR (5 mice, 10 tumours), C-MMAE (4 mice, 8 tumours), C-MMAE+IR (5 mice, 10 tumours). For CAL-27 tumour xenografts in experiment Fig. 4g, the number of mice and tumours per group were: control (4 mice, 8 tumours), IR (5 mice, 10 tumours), cetuximab+MMAE (5 mice, 10 tumours) cetuximab+MMAE+IR (5 mice, 10 tumours), C-MMAE (5 mice, 10 tumours), C-MMAE+IR (5 mice, 10 tumours). […] For OE19 tumour xenografts in experiment Fig. 5d,e and Table 1, the number of mice and tumours per group were: control (5 mice, 10 tumours), IR (5 mice, 10 tumours), trastuzumab (5 mice, 10 tumours), trastuzumab+IR (5 mice, 10 tumours), T-DM1 (5 mice, 10 tumours) and T-DM1+IR (5 mice, 10 tumours). For NCI N87 tumour xenografts in experiment Fig. 5d,e and Table 1, the number of mice and tumours per group were: control (2 mice, 4 tumours), IR (3 mice, 6 tumours), trastuzumab (3 mice, 6 tumours), trastuzumab+IR (4 mice, 8 tumours), T-DM1 3 mice, 6 tumours) and T-DM1+ IR (4 mice, 8 tumours). For HCT116 tumour xenografts in experiment Fig. 5d,e and Table 1, the number of mice and tumours per group were: control (3 mice, 6 tumours), IR (4 mice, 8 tumours), trastuzumab (3 mice, 6 tumours), trastuzumab+IR (3 mice, 6 tumours), T-DM1 (3 mice, 6 tumours) and T-DM1+ IR (4 mice, 8 tumours).

CAL-27 cells [2] = test: Clonogenic cell survival (SF2), CAL-27 cells; format: cell-based, human; conditions: drug overnight then 2 Gy, compared with vehicle
Method: Cells were treated with MMAE, mertansine, cetuximab or cetuximab-MMAE for 24 h and then irradiated with 2 Gy. Following IR, cells were counted, re-plated at varying cell numbers in drug-free media. 10–14 days after initial seeding formed colonies were methanol fixed, stained with crystal violet and counted. Surviving fraction at 2 Gy (SF2) was calculated as the fraction of cells surviving 2 Gy compared with non-irradiated cells.

[3] = system: HER2+ and HER2− cell lines; test: Neutral comet assay after IR, HER2+ and HER2− cell lines; format: cell-based, human; conditions: 20 nM overnight, 2 Gy
Method: as §1

OE19 tumour xenografts = test: OE19 tumour xenograft growth with or without IR; format: in vivo, mice; conditions: OE19 (HER2+)
Method: as §2, with “For NCI N87 tumour xenografts in experiment Fig. 5d,e and Table 1, the number of mice and tumours per group were: control (2 mice, 4 tumours), IR (3 mice, 6 tumours), trastuzumab (3 mice, 6 tumours), trastuzumab+IR (4 mice, 8 tumours), T-DM1 3 mice, 6 tumours) and T-DM1+ IR (4 mice, 8 tumours). For HCT116 tumour xenografts in experiment Fig. 5d,e and Table 1, the number of mice and tumours per group were: control (3 mice, 6 tumours), IR (4 mice, 8 tumours), trastuzumab (3 mice, 6 tumours), trastuzumab+IR (3 mice, 6 tumours), T-DM1 (3 mice, 6 tumours) and T-DM1+ IR (4 mice, 8 tumours).” left out

HCT116 tumour xenografts = test: HCT116 tumour xenograft growth with or without IR; format: in vivo, mice; conditions: HCT116 (HER2−)
Method: (§3) CAL-27, OE19, NCI N87 and HCT116 tumour xenografts were established and tumour growth was measured with digital calipers. Tumour volume was measured blindly to treatment group and calculated using the formula as ½ × length × width^2. Mice were randomized into groups once the average tumour volume reached >100 mm^3. Mice were assigned to indicated groups in ‘Results'. […] For irradiated mice, the tumour-bearing hindlimbs were focally irradiated while the remainder of the mouse was shielded from IR with custom designed lead blocking >95% of the dose as verified by dosimeters placed on the mouse. Free MMAE was injected on an equimolar basis to C-MMAE in final volume of 3% DMSO. Drug doses and IR fractionation are as indicated in ‘Results'. To prevent unnecessary morbidity, mice were killed if tumour length exceeded 15 mm per protocol. Nonlinear regression least squares fit was used to calculate tumour volume doubling times. Tumour doubling times were extrapolated for T-DM1+IR groups where tumour doubling was been achieved. To minimize the number of mice used, tumours were grown in the bilateral flanks. […]

[4] = system: NCI N87 tumour xenografts; test: NCI N87 tumour xenograft growth with or without IR; format: in vivo, mice; conditions: NCI N87 (HER2+)
Method: as §3

[5] = 0.25 nmol i.v. day 0, +IR 2.5 Gy on days 1, 2 and 3

Row | Substance | effect on IR induced comet tail length (LN229 cells) | effect on IR induced comet tail length (CAL-27 cells [1]) | Mean Diff. Control vs. treatment + IR (Tukey's multiple comparisons, tumour volume) (CAL-27 tumour xenografts; day 35, + IR 3 Gy on days 1 and 2) | Mean Diff. Control vs. treatment (Tukey's multiple comparisons, tumour volume) (CAL-27 tumour xenografts; day 35, no IR) | surviving fraction following 2 Gy (SF2) (CAL-27 cells [2]) | radiosensitization (IR induced DNA double-strand breaks, comet tail length) [3] | Tumour doubling time in days (mean, 95% CI) (OE19 tumour xenografts; [5]) | Tumour doubling time in days (mean, 95% CI) (OE19 tumour xenografts; 0.25 nmol i.v. day 0, no IR) | Tumour doubling time in days (mean, 95% CI) (HCT116 tumour xenografts; [5]) | Tumour doubling time in days (mean, 95% CI) (HCT116 tumour xenografts; 0.25 nmol i.v. day 0, no IR) | Tumour doubling time in days (mean, 95% CI) [4, 5] | Tumour doubling time in days (mean, 95% CI) ([4]; 0.25 nmol i.v. day 0, no IR)
1 | cetuximab | not appreciably increased | not | 559.5 | 500.9 | no radiosensitizing effect | – | – | – | – | – | – | –
2 | trastuzumab | – | – | – | – | – | did not result in any significant radiosensitization | 14 (10–24) days | 6 (4–8) days | 7 (5–12) days | 4 (2–8) days | 19 (16–22) days | 14 (10–21) days

— paper PMC5059467, “Anti-tubulin drugs conjugated to anti-ErbB antibodies selectively radiosensitize” (Nature Communications, 2016)
